Experimental data from PubChem BioAssay AID588405 (Sanford-Burnham Center for Chemical Genomics, 2011).
This is a selection; strong and weak results do not stand in their true shares. Calls of active or inactive are those of the source.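 How the source made its calls: active means inhibition of at least 50% at 20 µM; inactive means the rest.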

test: Peg3 promoter-driven luciferase inhibitors, primary screen, cell-based, HeLa, luciferase luminescence (AID 588405); settings: HeLa PEG-Prom luciferase reporter, overnight, at 20 µM, active compounds read high

| SMILES | inhibition |
| --- | --- |
| COc1ccccc1OP(=O)(Nc1ccc(C)cn1)Oc1ccccc1OC | inactive: 17% |
| Cc1ccc(OP(=O)(Nc2nccs2)Oc2ccc(C)cc2)cc1 | inactive: 14.3% |
| CN(C(=O)Cc1ccc(Cl)c(Cl)c1)[C@H]1CCCC[C@H]1N1CCCC1 | inactive: -9.88% |
| Cc1ccc(N/C(=N/P(=O)(N2CCOCC2)N2CCOCC2)N2CCOCC2)cc1 | inactive: 30.2% |
| NC(=O)c1cc([N+](=O)[O-])cc([N+](=O)[O-])c1N | inactive: 1.26% |
| Nc1cccc2ccc([As](=O)(O)O)cc12 | inactive: 12% |
| CCN(N=Nc1nonc1N)c1nonc1N | inactive: 15.7% |
| Cc1cc(SC(NC(=O)c2ccc(F)cc2)C(Cl)(Cl)Cl)ncn1 (configuration not stated) | inactive: 10.2% |
| CCOP(=O)(Nc1ccccc1)OCC | inactive: 2.08% |
| Cc1ccc(NP(=O)(Oc2ccccc2F)Oc2ccccc2F)nc1 | inactive: 5.67% |
| CN(C(=O)Cc1ccc(Cl)c(Cl)c1)[C@H]1CCCC[C@@H]1N1CCCC1 | inactive: -10% |
| O=P(Nc1nc2ccc(Cl)cc2s1)(c1ccccc1)c1ccccc1 | inactive: 21.6% |
| CN(C)P(=O)(N(C)C)n1c(Nc2ccccc2)nnc1-c1ccccc1 | inactive: -28.9% |
| CC(=O)Nc1ccc([As](=O)(O)O)cc1 | inactive: 2.05% |
| O=C(O)c1ccccc1[As](=O)(O)O | inactive: 7.39% |
| CCCC1OP(N)(=O)OCC1CC (configuration not stated) | inactive: 6.78% |
| CC(NC(=O)COC(=O)C(O)(c1ccccc1)c1ccccc1)c1ccccc1 (configuration not stated) | inactive: 5.38% |
| Cc1ccccc1OP(=O)(Nc1ccccn1)Oc1ccccc1C | inactive: 18.5% |
| O=c1c2cc([N+](=O)[O-])ccc2[nH]c2c([N+](=O)[O-])cc([N+](=O)[O-])cc12 | active: 104% |
| CN(C)C(=O)Oc1noc2ccccc12 | inactive: 0.67% |
| O=C(OC1CN2CCC1CC2)c1ccccc1 (configuration not stated) | inactive: -6.56% |
| CCC(=O)N1C2C3N(C(=O)CC)C1C1N(C(=O)CC)C(C(N1C(=O)CC)N3C(=O)CC)N2C(=O)CC | inactive: 6.36% |
| COC(=O)c1cc2c(s1)N=C(c1ccccc1)N(C)P2(=O)N1CCOCC1 (configuration not stated) | inactive: 0.86% |
| CC(=O)NC(SC(=S)N(CC(C)C)CC(C)C)C(Cl)(Cl)Cl (configuration not stated) | inactive: 4.38% |
| Cc1ccc(OP(=O)(Nc2ccccn2)Oc2ccc(C)cc2)cc1 | inactive: 10.1% |
| O=P1(N(CCCl)CCCl)OCCC2CCCCN21 (configuration not stated) | inactive: 13.9% |

| SMILES | inhibition |
| --- | --- |
| c1ccc(-c2nn[nH]n2)c(-c2nn[nH]n2)c1 | inactive: -8.33% |
| Cc1ccc(NP(=O)(Oc2cccc(C)c2)Oc2cccc(C)c2)nc1 | inactive: 7.19% |
| CCNC(=S)/N=C(\N)N[N+](=O)[O-] | inactive: 6.28% |
| O=C(NC1CCS(=O)(=O)C1)NP(=S)(Oc1ccccc1)Oc1ccccc1 (configuration not stated) | inactive: -4.07% |
| CC(=O)Nc1ccc([As](=O)(O)O)c(O)c1 | inactive: -1.04% |
| CC(=O)Nc1ccc(Oc2c([N+](=O)[O-])cc([N+](=O)[O-])cc2[N+](=O)[O-])cc1 | inactive: 10.9% |
| Cc1ccccc1CN(C)C(=O)COC(=O)C(O)(c1ccccc1)c1ccccc1 | inactive: 4.95% |
| C[C@H]1OP(=O)(Oc2ccccc2)C[C@@H]2O[C@@H]21 (some centres not stated) | inactive: 1.53% |
| C[C@@H]1C=CCP(=O)(Oc2ccccc2)O1 (some centres not stated) | inactive: -1.28% |
| CC(=O)c1ccc(N2CC2c2ccncc2)cc1 (configuration not stated) | inactive: 17.1% |
| N#C/C(=C\c1ccc(N(CCBr)CCBr)cc1)C(N)=O | active: 68.8% |
| COC(=O)C1(C)COP(=O)(NCc2ccccc2)OC1 (configuration not stated) | inactive: 4.14% |
| CC(C)(C)C(=O)NC(Sc1ccccc1)C(Cl)(Cl)Cl (configuration not stated) | inactive: 15.8% |
| CCc1cc(O)c([N+](=O)[O-])c(C)c1[N+](=O)[O-] | inactive: 7.52% |
| O=P1(Nc2nc3ccc(Cl)cc3s2)COc2ccccc2O1 (configuration not stated) | inactive: -44% |
| CCOc1ccc(C2=NCC(CBr)S2)cc1 (configuration not stated) | inactive: -6.18% |
| c1nnnn1CCn1cnnn1 | inactive: -0.51% |
| CC(C)C(=O)NC(Sc1ccccc1)C(Cl)(Cl)Cl (configuration not stated) | inactive: 1.32% |
| O=P(Nc1nccs1)(c1ccccc1)c1ccccc1 | inactive: 1.01% |
| O=C(OC1CN2CCC1CC2)c1cccc(Cl)c1 (configuration not stated) | inactive: 7.07% |
| C(Cc1nn[nH]n1)Cc1nn[nH]n1 | inactive: 4.47% |
| Nc1ccc([As](=O)(O)c2ccc([N+](=O)[O-])cc2)cc1 | inactive: 13.1% |
| O=[As](O)(c1ccccc1)c1ccc(O)cc1 | inactive: -4.58% |
| O=[N+]([O-])c1ccc(O)c(/C=N/Nc2ccc([N+](=O)[O-])cc2[N+](=O)[O-])c1 | active: 56.1% |
| CC(=O)NC(SC(=S)N(C)C)C(Cl)(Cl)Cl (configuration not stated) | inactive: 15.7% |
| O=[N+]([O-])c1ncn(CCn2cnc([N+](=O)[O-])n2)n1 | inactive: -0.3% |

| SMILES | inhibition |
| --- | --- |
| O=P(Nc1nc2ccccc2s1)(c1ccccc1)c1ccccc1 | inactive: -3.85% |
| C[C@H]1OP(=O)(Oc2ccccc2)[C@H](O)[C@H](O)[C@H]1N=[N+]=[N-] (some centres not stated) | inactive: -3.81% |
| O=P(Nc1ccccn1)(c1ccc(Br)cc1)c1ccc(Br)cc1 | inactive: 18.5% |
| CN(C)C1(CNC(=O)c2ccc(Cl)c(S(N)(=O)=O)c2)CCCCC1 | inactive: 5.6% |
| COc1ccc(N)c([N+](=O)[O-])c1[N+](=O)[O-] | inactive: -8.84% |
| Nc1ccc(CCCCOc2ccccc2)cc1 | inactive: -240% |
| Nc1cccc([As](=O)(O)c2ccccc2)c1 | inactive: -0.7% |
| Cc1ccc(OCC(=O)OC2CN3CCC2CC3)cc1 (configuration not stated) | inactive: 12.9% |
| O=[As](O)(c1cccs1)c1cccs1 | inactive: 1.66% |
| O=P1(Nc2ccc(Br)cn2)COc2ccccc2OC1 | inactive: 4.52% |
| NS(=O)(=O)c1cccc(NC(=O)COC(=O)C(O)(c2ccccc2)c2ccccc2)c1 | inactive: 7.65% |
| Cc1ccc(S(=O)(=O)N(CCCN)CCCc2c(C)nc(N)[nH]c2=O)cc1 | inactive: 4.24% |
| O=P1(Nc2ncccn2)COc2ccccc2OC1 | inactive: 4.04% |
| CN(C)C1(CNC(=O)c2ccc(S(C)(=O)=O)cc2)CCCCC1 | inactive: -1.49% |
| O=C(/C=C/c1ccccc1)OC1CN2CCC1CC2 (configuration not stated) | inactive: -7.81% |
| CCCC1OP(=O)(Nc2ccccc2)OCC1CC (configuration not stated) | inactive: -1.52% |
| Cc1nn(-c2ccccc2)c2c1P(=O)(N1CCOCC1)N(C)C(c1ccccc1)=N2 (configuration not stated) | inactive: 13.8% |
| CC1CCC(C(C)C)C(OP(=O)(Nc2ccccn2)c2ccccc2)C1 (configuration not stated) | inactive: 20.9% |
| Cc1ccc(C(=O)OC2CN3CCC2CC3)cc1 (configuration not stated) | inactive: 6.45% |
| CC(C)/C=N\N=C(\N)N[N+](=O)[O-] | inactive: 2.76% |
| CN(C(=O)Cc1ccc(Cl)c(Cl)c1)[C@@H]1CCCC[C@H]1N1CCCC1 | inactive: -0.09% |
| CC1(CBr)Cn2c(nc3ccccc3c2=O)S1 (configuration not stated) | inactive: 11.2% |
| COc1ccccc1CNC(=O)COC(=O)C(O)(c1ccccc1)c1ccccc1 | inactive: 14.3% |
| O=P1(N(CCCl)CCCl)NCCC(C(F)(F)F)O1 (configuration not stated) | inactive: 9.73% |
| Clc1n[nH]nc1-c1nn[nH][15n]1 | inactive: 0.62% |
| CC(C)(C)C(=O)NC(Sc1ncccn1)C(Cl)(Cl)Cl (configuration not stated) | inactive: 9.97% |

| SMILES | inhibition |
| --- | --- |
| O=P1(Nc2ccccn2)COc2ccccc2OC1 | inactive: 8.33% |
| CCC1=CC2Cc3nc4ccc(Cl)cc4c(N)c3C(C1)C2 (configuration not stated) | active: 83.5% |
| CCOP(=O)(NC(=NC(C)c1ccccc1)NC(C)c1ccccc1)OCC (configuration not stated) | inactive: 12.7% |
| CCOP(=O)(Nc1ccc(C)cn1)OCC | inactive: 11.2% |
| CN(CCCl)Cc1cc(Cl)c(NC2=NCCN2)c(Cl)c1 | inactive: -6.88% |
| COc1cc(C2NCCC3(OCCO3)C2(C)C)cc(OC)c1OC (configuration not stated) | inactive: -6.04% |
| CCOP(=O)(Nc1cccc2ccccc12)OCC | inactive: 15% |
| Cc1ccc(NCCc2c([N+](=O)[O-])cc([N+](=O)[O-])cc2[N+](=O)[O-])cc1 | inactive: -63.9% |
| Nc1cccc2c([As](=O)(O)O)cccc12 | inactive: 20.3% |
| CCCOP(=S)(Nc1nc(N)cc(=O)[nH]1)OCCC | inactive: 4.04% |
| Cc1cccc(OCC(=O)OC2CN3CCC2CC3)c1 (configuration not stated) | inactive: 1.29% |
| O=[As](O)(c1cccc(O)c1)c1cccc(O)c1 | inactive: 3.16% |
| O=C(OC1CN2CCC1CC2)c1ccc(Cl)cc1 (configuration not stated) | inactive: 1.53% |
| O=[As](O)(O)c1cccnc1 | inactive: 6.02% |
| COc1cc(C(=O)NCC2(N3CCOCC3)CCCCC2)cc(Cl)c1OC(C)C | inactive: 9.81% |
| CS(=O)(=O)c1ccc(Cl)c(NC(=O)COC(=O)C(O)(c2ccccc2)c2ccccc2)c1 | inactive: 0.83% |
| N#CCCN(C(=O)COC(=O)C(O)(c1ccccc1)c1ccccc1)c1ccc(F)cc1 | inactive: 13.6% |
| CCOP1(=S)c2c(C)nn(CCC#N)c2N=C(c2ccc(F)cc2)N1C (configuration not stated) | inactive: 5.09% |
| CN(C(=O)Cc1ccccc1)[C@@H]1CC[C@]2(CCCO2)C[C@H]1N1CCCC1 | inactive: -19.1% |
| O=[N+]([O-])c1ccc2c(c1)nnn2O | inactive: 12.5% |
| CN(C)C(=O)c1cc([N+](=O)[O-])cc2c1-c1c(cc([N+](=O)[O-])cc1[N+](=O)[O-])C2=O | active: 113% |
| CN(C(=O)Cc1ccc(Cl)c(Cl)c1)[C@H]1CC[C@@]2(CCCO2)C[C@@H]1N1CCCC1 | inactive: -22.9% |
| NC(=O)Nc1ccc([As](=O)(O)O)cc1 | inactive: -187% |
| Nc1ccccc1[As](=O)(O)c1ccccc1 | inactive: -7.44% |
